Patent US20230322767A1, “ARYL SUBSTITUTED PYRROLO-PYRIDINONES AND THERAPEUTIC USES THEREOF” (Bayer Aktiengesellschaft, priority 2020, published 2023)

Sequences of proteins named here, by UniProt entry; tags and fusion partners are left off. A change or cut given only in a name is not applied to a line headed by its entry.
UniProt P48729: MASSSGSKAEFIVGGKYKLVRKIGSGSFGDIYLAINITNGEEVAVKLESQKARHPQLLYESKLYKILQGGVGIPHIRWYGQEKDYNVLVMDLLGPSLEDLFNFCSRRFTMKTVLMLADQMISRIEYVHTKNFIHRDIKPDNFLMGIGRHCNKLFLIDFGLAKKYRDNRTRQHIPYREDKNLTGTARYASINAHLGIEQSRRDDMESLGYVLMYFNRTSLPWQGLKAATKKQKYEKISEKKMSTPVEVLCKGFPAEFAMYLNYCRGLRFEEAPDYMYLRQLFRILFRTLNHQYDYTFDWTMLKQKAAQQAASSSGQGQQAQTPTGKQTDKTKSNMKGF

Target: CSNK1A1 (Homo sapiens (Human), UniProt P48729)
Assay: CSNK1A1 Assay 2 (ADP-Glo, 1 μM ATP)
Type: biochemical
Conditions: median, read-out: CSNK1A1 Assay 2 IC50 [mol/l] (median)
Procedure: CSNK1A1-inhibitory activity of compounds of the present invention in presence of 1 μM adenosine-tri-phosphate (ATP) was quantified employing the CSNK1A1 assay as described in the following paragraphs. In essence, the enzyme activity is measured by quantification of the adenosine-di-phosphate (ADP), which is generated as a co-product of the enzyme reaction, via the “ADP-Glo™ Kinase Assay” kit from the company Promega. This detection system works as follows: In a first step the ATP not consumed in the kinase reaction is quantitatively converted to cAMP employing an adenylate cyclase (“ADP-Glo-reagent”), then the adenylate cyclase is stopped and the ADP generated in the kinase reaction converted to ATP which generates in a luciferase-based reaction a glow-luminescence signal (“Kinase Detection Reagent”).
Recombinant fusion protein of N-terminal Glutathion-S-Transferase (GST) and full-length human CSNK1A1, expressed by baculovirus infected insect cells and purified via Glutathion affinity chromatography, was purchased from Life Technologies (product no. PV4174) and used as enzyme. […]
For the assay 50 nl of a 100 fold concentrated solution of the test compound in DMSO was pipetted into a white 1536-well microtiter plate (Greiner Bio-One, Frickenhausen, Germany), 2 μL of a solution of CSNK1A1 in aqueous assay buffer [50 mM HEPES pH 7.5, 10% (v/v) glycerol, 10 mM MgCl2, 50 mM NaCl, 1 mM dithiothreitol, 0.01% (w/v) bovine serum albumin, 0.01% (v/v) Triton X-100] were added and the mixture was incubated for 15 min at 22° C. to allow pre-binding of the test compounds to the enzyme before the start of the kinase reaction. […] Subsequently 2.5 μL of the “kinase detection reagent” (1.2 fold more concentrated than recommended by the producer) were added, the resulting mixture was incubated at 22° C. for 1 h and then the luminescence measured with a suitable measurement instrument (e.g. Viewlux™ from Perkin-Elmer). […]

Row | SMILES | IC50
1 | Cn1ccc2[nH]c(-c3ccnc(NC(=O)C(CC(F)F)c4ccc(F)cc4)c3)c(-c3ccccc3)c2c1=O (single isomer, unassigned) [Example 7, 4,4-difluoro-2-(4-fluorophenyl)-N-[4-(5-methyl-4-oxo-3-phenyl-4,5-dihydro-1H-pyrrolo[3,2-c]pyridin-2-yl)pyridin-2-yl]butanamide] | 7.3 nM
2 | Cn1ccc2[nH]c(-c3ccnc(NC(=O)C(CC(F)F)c4ccc(F)cc4)c3)c(-c3ccccc3)c2c1=O (racemic) [Example 6, 4,4-difluoro-2-(4-fluorophenyl)-N-[4-(5-methyl-4-oxo-3-phenyl-4,5-dihydro-1H-pyrrolo[3,2-c]pyridin-2-yl)pyridin-2-yl]butanamide] | 2.5 nM
3 | Cn1ccc2[nH]c(-c3ccnc(NC(=O)C(CC(F)F)c4ccc(F)cc4)c3)c(-c3ccccc3)c2c1=O (single isomer, unassigned) [Example 8, 4,4-difluoro-2-(4-fluorophenyl)-N-[4-(5-methyl-4-oxo-3-phenyl-4,5-dihydro-1H-pyrrolo[3,2-c]pyridin-2-yl)pyridin-2-yl]butanamide] | 0.94 nM
